{
  "source": "patent US20150150960A1",
  "about": "“PROTECTION AGAINST DENGUE VIRUS AND PREVENTION OF SEVERE DENGUE DISEASE” (priority 2010, published 2015)",
  "key": {"DENV2": {"tested_on": "DENV2", "type": "in vivo, IFN-α/βR−/− mice", "conditions": "four dominant epitopes together"}, "[1]": {"tested_on": "PBMC of DENV seropositive human donors", "type": "cell-based", "conditions": "ex vivo IFNγ ELISPOT"}, "[2]": {"conditions": "allele B*0702, Sri Lankan donors"}, "[3]": {"conditions": "allele B*3501, Sri Lankan donors"}},
  "note": "Like-named read-outs stand apart in the source and are kept apart here.",
  "data": [
    {"molecule": "NS2A8-15: dominant DENV-2 derived H-2^b peptide, CD8+ T cell epitope (Yauch et al. 2009) (FSLGVLGM)", "values": [
      {"measurement": "protective effect of peptide immunization after depletion of CD8+ T cells", "setting": "DENV2", "result": "abrogated the protective effect"}
    ]},
    {"molecule": "CC[C@H](C)[C@H](NC(=O)[C@H](CC(=O)O)NC(=O)[C@H](CCCCN)NC(=O)[C@H](CCCNC(=N)N)NC(=O)[C@@H](NC(=O)[C@@H](N)CCCCN)C(C)C)C(=O)N[C@@H](CCC(N)=O)C(=O)N[C@@H](CCC(N)=O)C(=O)N[C@@H](Cc1c[nH]c2ccccc12)C(=O)O", "values": [
      {"measurement": "T cell response [SFC]", "setting": "[1]; human donors, allele B*5701", "result": 115, "unit": "SFC"}
    ]},
    {"molecule": "CC[C@H](C)[C@H](N)C(=O)N[C@H](C(=O)N[C@@H](CC(C)C)C(=O)N[C@@H](CCC(=O)O)C(=O)N[C@@H](Cc1ccccc1)C(=O)N[C@@H](Cc1ccccc1)C(=O)N[C@@H](CC(C)C)C(=O)N[C@@H](CCSC)C(=O)N[C@H](C(=O)N[C@@H](CC(C)C)C(=O)O)C(C)C)[C@@H](C)CC", "values": [
      {"measurement": "T cell response [SFC]", "setting": "[1]; allele A*0201, Sri Lankan donors", "result": 152, "unit": "SFC"}
    ]},
    {"molecule": "CC[C@H](C)[C@H](NC(=O)[C@@H]1CCCN1C(=O)CNC(=O)[C@@H](NC(=O)[C@H](C)N)[C@@H](C)O)C(=O)N[C@H](C(=O)N[C@H](C(=O)N[C@@H](CC(C)C)C(=O)N[C@@H](Cc1c[nH]c2ccccc12)C(=O)O)[C@@H](C)O)[C@@H](C)O", "values": [
      {"measurement": "T cell response [SFC]", "setting": "[1]; allele B*5801, Sri Lankan donors", "result": 110, "unit": "SFC"}
    ]},
    {"molecule": "C[C@H](NC(=O)[C@@H](NC(=O)[C@H](CCC(N)=O)NC(=O)[C@@H](NC(=O)[C@H](Cc1c[nH]cn1)NC(=O)[C@H](Cc1ccc(O)cc1)NC(=O)CNC(=O)[C@@H]1CCCN1C(=O)[C@@H](N)CCCNC(=N)N)[C@@H](C)O)[C@@H](C)O)C(=O)O", "values": [
      {"measurement": "T cell response [SFC]", "setting": "[1]; [2]", "result": 177, "unit": "SFC"}
    ]},
    {"molecule": "CC(C)C[C@H](NC(=O)[C@H](CCCNC(=N)N)NC(=O)[C@@H]1CCCN1C(=O)[C@@H](N)CC(N)=O)C(=O)N[C@@H](CS)C(=O)N[C@H](C(=O)N[C@@H](CCCNC(=N)N)C(=O)N[C@@H](CCC(=O)O)C(=O)N[C@@H](CCC(=O)O)C(=O)N[C@@H](Cc1ccccc1)C(=O)O)[C@@H](C)O", "values": [
      {"measurement": "T cell response [SFC]", "setting": "[1]; human donors, allele B*0702", "result": 25, "unit": "SFC"}
    ]},
    {"molecule": "CC(C)C[C@H](NC(=O)[C@H](CCC(N)=O)NC(=O)[C@@H](NC(=O)[C@H](Cc1ccc(O)cc1)NC(=O)[C@@H](N)C(C)C)[C@@H](C)O)C(=O)N[C@@H](CS)C(=O)N[C@@H](CC(=O)O)C(=O)N[C@@H](Cc1c[nH]cn1)C(=O)N[C@@H](CCCNC(=N)N)C(=O)O", "values": [
      {"measurement": "T cell response [SFC]", "setting": "[1]; allele A*3301, Sri Lankan donors", "result": 28, "unit": "SFC"}
    ]},
    {"molecule": "CC(C)[C@H](NC(=O)[C@H](CCC(=O)O)NC(=O)[C@H](Cc1ccc(O)cc1)NC(=O)[C@H](CO)NC(=O)CNC(=O)[C@H](Cc1c[nH]cn1)NC(=O)[C@H](Cc1ccc(O)cc1)NC(=O)[C@H](C)NC(=O)[C@@H](N)Cc1c[nH]c2ccccc12)C(=O)O", "values": [
      {"measurement": "T cell response [SFC]", "setting": "[1]; human donors, allele B*5101", "result": 97, "unit": "SFC"}
    ]},
    {"molecule": "CC[C@H](C)[C@H](NC(=O)[C@H](CO)NC(=O)[C@H](C)NC(=O)[C@@H]1CCCN1C(=O)[C@@H](N)CC(=O)O)C(=O)N[C@@H](C)C(=O)N[C@@H](C)C(=O)N[C@@H](CCCNC(=N)N)C(=O)NCC(=O)N[C@@H](Cc1ccc(O)cc1)C(=O)O", "values": [
      {"measurement": "T cell response [SFC]", "setting": "[1]; [3]", "result": 183, "unit": "SFC"}
    ]},
    {"molecule": "CC(C)C[C@H](NC(=O)[C@H](CCC(=O)O)NC(=O)[C@H](CC(C)C)NC(=O)[C@H](CCCCN)NC(=O)CNC(=O)[C@H](CC(C)C)NC(=O)[C@H](Cc1c[nH]cn1)NC(=O)[C@H](Cc1c[nH]c2ccccc12)NC(=O)[C@@H]1CCCN1C(=O)CN)C(=O)O", "values": [
      {"measurement": "T cell response [SFC]", "setting": "[1]; [2]", "result": 53, "unit": "SFC"}
    ]},
    {"molecule": "CC[C@H](C)[C@H](N)C(=O)N[C@H](C(=O)N1CCC[C@H]1C(=O)N[C@@H](CCSC)C(=O)N[C@@H](CC(C)C)C(=O)N[C@@H](CCCNC(=N)N)C(=O)N[C@@H](Cc1c[nH]cn1)C(=O)N[C@H](C(=O)N[C@H](C(=O)O)[C@@H](C)CC)[C@@H](C)O)[C@@H](C)O", "values": [
      {"measurement": "T cell response [SFC]", "setting": "[1]; allele A*2402, Sri Lankan donors", "result": 193, "unit": "SFC"}
    ]},
    {"molecule": "CC(C)C[C@H](NC(=O)[C@H](CC(C)C)NC(=O)CNC(=O)CNC(=O)[C@H](C)NC(=O)[C@@H](NC(=O)[C@H](CC(C)C)NC(=O)[C@@H]1CCCN1C(=O)CN)C(C)C)C(=O)O", "values": [
      {"measurement": "T cell response [SFC]", "setting": "[1]; [2]", "result": 35, "unit": "SFC"}
    ]},
    {"molecule": "CC[C@H](C)[C@H](NC(=O)[C@@H](NC(=O)[C@H](CO)NC(=O)[C@H](Cc1ccc(O)cc1)NC(=O)[C@H](CCCCN)NC(=O)[C@H](CC(C)C)NC(=O)[C@H](CC(N)=O)NC(=O)[C@H](CCC(=O)O)NC(=O)[C@@H](N)Cc1ccc(O)cc1)C(C)C)C(=O)O", "values": [
      {"measurement": "T cell response [SFC]", "setting": "[1]; allele B*4402, Sri Lankan donors", "result": 37, "unit": "SFC"}
    ]},
    {"molecule": "CC[C@H](C)[C@H](NC(=O)[C@H](CC(N)=O)NC(=O)[C@H](C)NC(=O)[C@@H](N)CCSC)C(=O)N[C@@H](Cc1ccccc1)C(=O)N[C@@H](CCCNC(=N)N)C(=O)NCC(=O)N[C@@H](CO)C(=O)N[C@@H](Cc1ccc(O)cc1)C(=O)O", "values": [
      {"measurement": "T cell response [SFC]", "setting": "[1]; [3]", "result": 5982, "unit": "SFC"}
    ]},
    {"molecule": "CC[C@H](C)[C@H](NC(=O)[C@H](CCC(=O)O)NC(=O)[C@@H](N)CCCNC(=N)N)C(=O)N1CCC[C@H]1C(=O)N[C@@H](CCC(=O)O)C(=O)N[C@@H](CCCNC(=N)N)C(=O)N[C@@H](CO)C(=O)N[C@@H](Cc1c[nH]c2ccccc12)C(=O)N[C@@H](CC(N)=O)C(=O)N[C@H](C(=O)O)[C@@H](C)O", "values": [
      {"measurement": "T cell response [SFC]", "setting": "[1]; allele B*4001, Sri Lankan donors", "result": 93, "unit": "SFC"}
    ]},
    {"molecule": "CC(C)C[C@H](NC(=O)[C@H](CCCNC(=N)N)NC(=O)[C@@H]1CCCN1C(=O)[C@@H](N)CCCCN)C(=O)N[C@@H](CS)C(=O)N[C@H](C(=O)N[C@@H](CCCNC(=N)N)C(=O)N[C@@H](CCC(=O)O)C(=O)N[C@@H](CCC(=O)O)C(=O)N[C@@H](Cc1ccccc1)C(=O)O)[C@@H](C)O", "values": [
      {"measurement": "T cell response [SFC]", "setting": "[1]; human donors, allele B*0702", "result": 48, "unit": "SFC"}
    ]},
    {"molecule": "CSCC[C@H](NC(=O)[C@@H]1CCCN1C(=O)[C@@H](NC(=O)[C@@H](NC(=O)[C@H](Cc1ccccc1)NC(=O)[C@@H](NC(=O)[C@@H](NC(=O)[C@H](C)NC(=O)[C@@H](N)C(C)C)[C@@H](C)O)[C@@H](C)O)C(C)C)[C@@H](C)O)C(=O)O", "values": [
      {"measurement": "T cell response [SFC]", "setting": "[1]; [3]", "result": 268, "unit": "SFC"}
    ]},
    {"molecule": "CC(C)C[C@H](NC(=O)[C@H](CO)NC(=O)CNC(=O)[C@H](CS)NC(=O)[C@H](Cc1c[nH]c2ccccc12)NC(=O)[C@H](CCC(N)=O)NC(=O)[C@H](CC(=O)O)NC(=O)[C@H](CCC(=O)O)NC(=O)[C@@H](N)CCCNC(=N)N)C(=O)O", "values": [
      {"measurement": "T cell response [SFC]", "setting": "[1]; human donors, allele B*4001", "result": 150, "unit": "SFC"}
    ]},
    {"molecule": "CC[C@H](C)[C@H](NC(=O)[C@H](C)NC(=O)[C@@H](NC(=O)[C@H](C)NC(=O)[C@H](CC(C)C)NC(=O)[C@H](CCCNC(=N)N)NC(=O)[C@H](CCCCN)NC(=O)[C@@H]1CCCN1C(=O)[C@@H](N)CO)[C@@H](C)O)C(=O)N[C@@H](C)C(=O)O", "values": [
      {"measurement": "T cell response [SFC]", "setting": "[1]; [2]", "result": 102, "unit": "SFC"}
    ]},
    {"molecule": "CC[C@H](C)[C@H](NC(=O)[C@H](CCC(N)=O)NC(=O)[C@@H](N)CCCCN)C(=O)N[C@@H](C)C(=O)N[C@@H](CC(N)=O)C(=O)N[C@@H](CCC(=O)O)C(=O)N[C@@H](CC(C)C)C(=O)N[C@@H](CC(N)=O)C(=O)N[C@@H](Cc1ccc(O)cc1)C(=O)O", "values": [
      {"measurement": "T cell response [SFC]", "setting": "[1]; allele B*1501, Sri Lankan donors", "result": 22, "unit": "SFC"}
    ]},
    {"molecule": "CC[C@H](C)[C@H](N)C(=O)N1CCC[C@H]1C(=O)N[C@@H](CCSC)C(=O)N[C@@H](C)C(=O)N[C@H](C(=O)N[C@@H](Cc1ccc(O)cc1)C(=O)NCC(=O)N[C@@H](Cc1c[nH]c2ccccc12)C(=O)N[C@@H](CC(N)=O)C(=O)N[C@@H](CC(C)C)C(=O)O)[C@@H](C)O", "values": [
      {"measurement": "T cell response [SFC]", "setting": "[1]; [2]", "result": 450, "unit": "SFC"}
    ]},
    {"molecule": "CC[C@H](C)[C@H](NC(=O)[C@@H](NC(=O)[C@@H](N)CCCNC(=N)N)C(C)C)C(=O)N[C@@H](CC(=O)O)C(=O)N1CCC[C@H]1C(=O)N[C@@H](CCCNC(=N)N)C(=O)N[C@@H](CCCNC(=N)N)C(=O)N[C@@H](CS)C(=O)N[C@@H](CC(C)C)C(=O)N[C@@H](CCCCN)C(=O)O", "values": [
      {"measurement": "T cell response [SFC]", "setting": "[1]; allele A*1101, Sri Lankan donors", "result": 117, "unit": "SFC"}
    ]}
  ]
}
